The values that follow come from US8492378B2, “GSK-3β inhibitor” (Takeda Pharmaceutical Company Limited, priority 2006, dated 2013).

Chains of the proteins cited; added tags and fusions are not shown. Lines headed by an entry give the natural chain unless they say otherwise; changes in a name come on top.
UniProt P49841: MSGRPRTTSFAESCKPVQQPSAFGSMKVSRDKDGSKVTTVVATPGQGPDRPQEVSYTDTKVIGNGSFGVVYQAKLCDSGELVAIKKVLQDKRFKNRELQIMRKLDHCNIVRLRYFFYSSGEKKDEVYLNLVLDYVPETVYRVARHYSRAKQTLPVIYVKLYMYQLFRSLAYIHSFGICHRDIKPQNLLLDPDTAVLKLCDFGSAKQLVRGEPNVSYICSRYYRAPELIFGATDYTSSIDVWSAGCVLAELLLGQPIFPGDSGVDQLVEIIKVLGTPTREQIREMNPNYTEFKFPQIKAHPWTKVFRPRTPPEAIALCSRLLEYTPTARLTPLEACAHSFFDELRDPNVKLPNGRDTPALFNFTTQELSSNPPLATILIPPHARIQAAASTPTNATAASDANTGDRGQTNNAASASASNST

The target in the experiment is GSK-3β (Homo sapiens, UniProt P49841). Put plainly: Serine threonine kinase inhibitory activity ([γ-33P]ATP). It counts as biochemical. The settings on record: [γ-33P]ATP kinase panel; read-out: IC50 values against GSK-3β. Here is the method:
Inhibitory action on various purified proteins of serine, threonine kinases (p38α, JNK1, IKKβ, ASK1, TAK1, MEKK1, PKCθ, GSK-3β, PLK1, TTK, Aurora A, MEK1, MEK5, B-RAF, ERK1) was examined. As a reaction mixture, 37.5 μL of 25 mM HEPES (pH 7.5), 10 mM magnesium acetate, 1 mM DTT, each concentration of purified protein and a synthesis substrate were used. The mixture was reacted in the presence or absence of a test compound (2.5 μL/the reaction mixture) dissolved in DMSO at each concentration at room temperature for 5 min. […] After quenching the reaction, the amount of phosphorylated peptide was measured by Top-Count (Packard).

As for `COc1ccc(CSc2nnc(-c3ccc4c(c3)OCO4)o2)cc1F` [Reference Example 71, 2-(1,3-benzodioxol-5-yl)-5-[(3-fluoro-4-methoxybenzyl)thio]-1,3,4-oxadiazole, reference compound], the half-inhibitory concentration (IC50) was determined as 65 nM.
